Series [1] can be described thus: clinical. As to conditions: human, in vivo, 200 mg.
The conditions of series [2]: 12 mg once-daily; cited from earlier work.

`CNc1cc(Nc2cccn(-c3ccccn3)c2=O)nc2c(C(=O)N[C@@H]3CC[C@H]3OC)cnn12` [Compound 1, N-((1R,2R)-2-methoxycyclobutyl)-7-(methylamino)-5-((2-oxo-2H-[1,2′-bipyridin]-3-yl)amino)pyrazolo[1,5-a]pyrimidine-3-carboxamide] returned an AUC(0-inf) in series [1] of 9020 ng·h/mL.

Consider deucravacitinib, for which the peak concentration achieved result in series [2] was “approximately 120 ng/ml”.

The term AUC(0-inf) denotes the area under the concentration-time curve extrapolated to infinity. High values mean more exposure, low ones less exposure.

The values above are taken from patent US20250213572A1, “TYK2 INHIBITORS AND USES THEREOF” (Takeda Pharmaceutical Company Limited, priority 2022, published 2025).
